Earlier results on one substance are cited in publication PMC4610673.

Protein sequences, listed by entry. Tags and fused reporters are not part of them. Residues count along the entry.
UniProt Q71F23, whole entry, looked up, tested part not stated: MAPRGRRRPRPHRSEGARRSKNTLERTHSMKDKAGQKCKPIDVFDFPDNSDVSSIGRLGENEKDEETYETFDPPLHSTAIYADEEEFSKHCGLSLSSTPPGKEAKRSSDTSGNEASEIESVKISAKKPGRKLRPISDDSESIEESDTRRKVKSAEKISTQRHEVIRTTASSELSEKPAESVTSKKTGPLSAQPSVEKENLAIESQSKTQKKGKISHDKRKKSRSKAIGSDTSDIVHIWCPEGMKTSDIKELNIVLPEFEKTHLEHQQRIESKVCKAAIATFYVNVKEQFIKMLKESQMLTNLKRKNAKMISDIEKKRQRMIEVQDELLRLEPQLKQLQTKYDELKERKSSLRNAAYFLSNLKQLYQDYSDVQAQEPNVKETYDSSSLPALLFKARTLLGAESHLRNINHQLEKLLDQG
UniProt P53350, 371-603: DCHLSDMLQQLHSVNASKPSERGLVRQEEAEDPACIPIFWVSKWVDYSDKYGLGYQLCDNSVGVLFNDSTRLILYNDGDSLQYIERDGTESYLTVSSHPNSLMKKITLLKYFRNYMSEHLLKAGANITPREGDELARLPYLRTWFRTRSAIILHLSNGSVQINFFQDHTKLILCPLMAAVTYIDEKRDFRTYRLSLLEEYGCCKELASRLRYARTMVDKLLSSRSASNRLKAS

This data set concerns the target PBIP1 phosphopeptide PLHSpT (Homo sapiens) (UniProt Q71F23).

The term Kd denotes the constant that tells how readily two partners part at equilibrium. For Plk1 PBD (from UniProt P53350), the Kd is 450 nM.
